System: male Wistar rats
Assay: Survival and general condition (activity, coat) during CDDP study period
Conditions: 16 mg/kg CDDP alone (treated control group)

For cis-diamminedichloroplatinum(II), the “animals surviving to the end of the study period” value was 5/10 and the “animals that did not survive to the end of the study period” value was 50%.
